What is called EC50 (read off the curve) is the concentration that produces a half-maximal response.

The target of the assay is truncated wild type E. coli SPase that lacks the N-terminal membrane helices (Δ2-75 variant of E. coli SPase) (Escherichia coli) (UniProt P00803). Description: steady-state increase of arylomycin fluorescence (ex 320 nm, em 410 nm) on binding the soluble N-terminally truncated (delta 2-75) wild type E. coli SPase.

The substance arylomycin C16 (peptide) returned a 50% effective concentration (EC50 (read off the curve)) of 2 µM.

These data come from patent publication US20160297851A1, “BROAD SPECTRUM […]” (priority 2012, published 2016).
